Data taken from patent US20190185560A1 (Novo Nordisk, published 2019).

Protein sequences, listed by entry. Tags and fused reporters are not part of them. Residues count along the entry.
UniProt Q9NP99, 21-234 limits assumed: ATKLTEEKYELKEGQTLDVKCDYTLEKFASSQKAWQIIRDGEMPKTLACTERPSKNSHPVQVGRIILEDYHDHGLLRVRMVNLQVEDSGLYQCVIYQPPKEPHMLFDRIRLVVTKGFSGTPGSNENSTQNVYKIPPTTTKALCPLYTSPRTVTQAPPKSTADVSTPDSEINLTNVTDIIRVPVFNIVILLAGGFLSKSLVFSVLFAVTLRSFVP
UniProt Q9NP99, 21-205 limits assumed: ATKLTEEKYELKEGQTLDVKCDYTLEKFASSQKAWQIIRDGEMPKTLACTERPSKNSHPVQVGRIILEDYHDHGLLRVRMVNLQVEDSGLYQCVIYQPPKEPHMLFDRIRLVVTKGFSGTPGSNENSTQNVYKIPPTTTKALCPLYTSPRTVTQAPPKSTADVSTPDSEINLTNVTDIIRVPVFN

T1: cynomolgus TREM-1-Fc (cynomolgus monkey)
T1 construct: also called cTREM-1
T1 chain: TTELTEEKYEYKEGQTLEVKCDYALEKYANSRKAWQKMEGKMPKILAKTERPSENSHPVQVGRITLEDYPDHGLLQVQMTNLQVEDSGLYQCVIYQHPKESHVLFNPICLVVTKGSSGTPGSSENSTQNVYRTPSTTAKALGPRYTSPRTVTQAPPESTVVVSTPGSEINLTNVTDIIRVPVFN


How the values were obtained:
cynomolgus TREM-1-Fc = target: T1, cynomolgus TREM-1-Fc; assay: SPR (ProteOn), antibody captured via anti-Fc, TREM-1-Fc as analyte, 1:1 Langmuir fit, 25 C
Method: (§1) The binding kinetics of the mAb 0170 variants towards human TREM-1-Fc and cynomolgus TREM-1-Fc were determined, respectively. Binding studies were performed on a ProteOn Analyzer (BioRad) that measures molecular interactions in real time through surface plasmon resonance. Experiments were run at 25° C. and the samples were stored at 15° C. in the sample compartment. The signal (RU, response units) reported by the ProteOn is directly correlated to the mass on the individual sensor chip surfaces in the six parallel flow cells. Anti-human Fc monoclonal or anti-murine Fc polyclonal antibody from Biacore human or mouse Fc capture kits were immobilized in horizontal direction onto flow cells of a GLM sensor chip according to the manufacturer's instructions. The final immobilization level of capture antibody was approximately 2600-6000 RU in each experiment. The capture of purified monoclonal mouse or recombinantly expressed anti-hTREM-1 antibodies was conducted by diluting the antibodies to 5-10 nM into running buffer (10 mM Hepes 0.15 M NaCl, 5 mM EDTA, 0.05% surfactant P20, pH 7.4) followed by injection in vertical direction at 30 μL/min for 60 sec, creating reference interspots adjacent to all flow cells with only anti-Fc antibody immobilized. […] Binding of hTREM-1 or cTREM-1 proteins was conducted by injecting analyte (antigen) over all flow cells in horizontal direction to allow for comparative analyses of binding to different captured anti-TREM-1 antibodies relative to binding to the reference interspot. hTREM-1 or cTREM-1 proteins were diluted serially 1:3 to 1.2-100 nM or into running buffer, injected at 100 μL/min for 250 s and allowed to dissociate for 600 s. The GLM surface was regenerated after each injection cycle of analyte via two 18 s injections of 10 mM Glycine, pH 1.7 and 50 mM NaOH at 100 μL/min. This regeneration step removed the anti-TREM-1 antibody and any bound TREM-1 protein from the immobilized capture antibody surface and allowed for the subsequent binding of the next interaction sample pair.

[1] = target: T2, human TREM-1 on cells (BWZ′36/hTREM-1 reporter cell line; hypoxic M2 macrophages) (human, UniProt Q9NP99 21-234); assay: cell-based or functional assay
[2] = target: T2, human TREM-1 on cells (BWZ′36/hTREM-1 …); assay: cell-based or functional assay; remark: listed apart in the source
human TREM-1-Fc = target: T3, human TREM-1-Fc (human, UniProt Q9NP99 21-205, limits assumed); assay: SPR (ProteOn), antibody captured via anti-Fc, TREM-1-Fc as analyte, 1:1 Langmuir fit, 25 C
T3 construct: also called hTREM-1
Method: as §1

koff (cynomolgus TREM-1-Fc)	kon (cynomolgus TREM-1-Fc)	IC50: inhibition of B-galactosidase signal of BWZ'36/hTREM-1 reporter cells stimulated with PGN and PGLYRP1 expressed by activated neutrophils [1]	IC50: inhibition of B-galactosidase signal of BWZ'36/hTREM-1 reporter cells stimulated with PGN and recombinant PGLYRP1 [2]	Kd (human TREM-1-Fc)	koff (human TREM-1-Fc)	kon (human TREM-1-Fc)	Binder
0.0004 s⁻¹	300000 M⁻¹ s⁻¹	0.24 nM	0.24 nM				mAb 0170 (humanised TREM-1 antibody, mAb 0170 of WO2013/120553) (antibody, V domains shown, also called mAb 170) VH: EVQLVESGGGLVQPGGSLKLSCAASGFTFSTYAMHWVRQASGKGLEWVGRIRTKSSNYATYYAASVKGRFTISRDDSKNTAYLQMNSLKTEDTAVYYCTRDMGIRRQFAYWGQGTLVTVSS VL: DIVLTQSPDSLAVSLGERATINCRASESVDTFDYSFLHWYQQKPGQPPKLLIYRASNLESGVPDRFSGSGSGTDFTLTISSLQAEDVAVYYCQQSNEDPYTFGQGTKLEIKR
0.0002 s⁻¹	400000 M⁻¹ s⁻¹	0.34 nM	0.35 nM	0.3 nM	0.0006 s⁻¹	2e+06 M⁻¹ s⁻¹	mAb 0323 (mAb 0170 variant, light chain F32S) (antibody, human IgG4 S228P, kappa, V domains shown) VH: EVQLVESGGGLVQPGGSLKLSCAASGFTFSTYAMHWVRQASGKGLEWVGRIRTKSSNYATYYAASVKGRFTISRDDSKNTAYLQMNSLKTEDTAVYYCTRDMGIRRQFAYWGQGTLVTVSS VL: DIVLTQSPDSLAVSLGERATINCRASESVDTSDYSFLHWYQQKPGQPPKLLIYRASNLESGVPDRFSGSGSGTDFTLTISSLQAEDVAVYYCQQSNEDPYTFGQGTKLEIKR
0.0006 s⁻¹	300000 M⁻¹ s⁻¹	0.27 nM	0.23 nM	0.2 nM	0.0006 s⁻¹	4e+06 M⁻¹ s⁻¹	mAb 0319 (mAb 0170 variant, light chain E97S) (antibody, human IgG4 S228P, kappa, V domains shown, Charge patch mutation) VH: EVQLVESGGGLVQPGGSLKLSCAASGFTFSTYAMHWVRQASGKGLEWVGRIRTKSSNYATYYAASVKGRFTISRDDSKNTAYLQMNSLKTEDTAVYYCTRDMGIRRQFAYWGQGTLVTVSS VL: DIVLTQSPDSLAVSLGERATINCRASESVDTFDYSFLHWYQQKPGQPPKLLIYRASNLESGVPDRFSGSGSGTDFTLTISSLQAEDVAVYYCQQSNSDPYTFGQGTKLEIKR
0.0007 s⁻¹	300000 M⁻¹ s⁻¹	0.49 nM	0.47 nM	0.2 nM	0.0007 s⁻¹	3e+06 M⁻¹ s⁻¹	mAb 0318 (mAb 0170 variant, light chain E27Q, E97Q) (antibody, human IgG4 S228P, kappa, V domains shown, Charge patch mutations) VH: EVQLVESGGGLVQPGGSLKLSCAASGFTFSTYAMHWVRQASGKGLEWVGRIRTKSSNYATYYAASVKGRFTISRDDSKNTAYLQMNSLKTEDTAVYYCTRDMGIRRQFAYWGQGTLVTVSS VL: DIVLTQSPDSLAVSLGERATINCRASQSVDTFDYSFLHWYQQKPGQPPKLLIYRASNLESGVPDRFSGSGSGTDFTLTISSLQAEDVAVYYCQQSNQDPYTFGQGTKLEIKR
0.0008 s⁻¹	200000 M⁻¹ s⁻¹		0.32 nM	0.4 nM	0.001 s⁻¹	3e+06 M⁻¹ s⁻¹	mAb 0332 (mAb 0170 variant, heavy chain A59Y, light chain E27Q, E97Q) (antibody, human IgG4 S228P, kappa, V domains shown) VH: EVQLVESGGGLVQPGGSLKLSCAASGFTFSTYAMHWVRQASGKGLEWVGRIRTKSSNYYTYYAASVKGRFTISRDDSKNTAYLQMNSLKTEDTAVYYCTRDMGIRRQFAYWGQGTLVTVSS VL: DIVLTQSPDSLAVSLGERATINCRASQSVDTFDYSFLHWYQQKPGQPPKLLIYRASNLESGVPDRFSGSGSGTDFTLTISSLQAEDVAVYYCQQSNQDPYTFGQGTKLEIKR
0.0006 s⁻¹	200000 M⁻¹ s⁻¹	0.32 nM	0.39 nM	0.2 nM	0.0007 s⁻¹	4e+06 M⁻¹ s⁻¹	mAb 0320 (mAb 0170 variant, light chain E97Q) (antibody, human IgG4 S228P, kappa, V domains shown, Charge patch mutation) VH: EVQLVESGGGLVQPGGSLKLSCAASGFTFSTYAMHWVRQASGKGLEWVGRIRTKSSNYATYYAASVKGRFTISRDDSKNTAYLQMNSLKTEDTAVYYCTRDMGIRRQFAYWGQGTLVTVSS VL: DIVLTQSPDSLAVSLGERATINCRASESVDTFDYSFLHWYQQKPGQPPKLLIYRASNLESGVPDRFSGSGSGTDFTLTISSLQAEDVAVYYCQQSNQDPYTFGQGTKLEIKR
0.0001 s⁻¹	600000 M⁻¹ s⁻¹	0.26 nM	0.26 nM	0.1 nM	0.0003 s⁻¹	3e+06 M⁻¹ s⁻¹	mAb 0322 (mAb 0170 variant, light chain F32A) (antibody, human IgG4 S228P, kappa, V domains shown) VH: EVQLVESGGGLVQPGGSLKLSCAASGFTFSTYAMHWVRQASGKGLEWVGRIRTKSSNYATYYAASVKGRFTISRDDSKNTAYLQMNSLKTEDTAVYYCTRDMGIRRQFAYWGQGTLVTVSS VL: DIVLTQSPDSLAVSLGERATINCRASESVDTADYSFLHWYQQKPGQPPKLLIYRASNLESGVPDRFSGSGSGTDFTLTISSLQAEDVAVYYCQQSNEDPYTFGQGTKLEIKR
0.0006 s⁻¹	300000 M⁻¹ s⁻¹	0.19 nM	0.2 nM	0.2 nM	0.0006 s⁻¹	3e+06 M⁻¹ s⁻¹	mAb 0321 (mAb 0170 variant, light chain E27Q) (antibody, human IgG4 S228P, kappa, V domains shown, Charge patch mutation) VH: EVQLVESGGGLVQPGGSLKLSCAASGFTFSTYAMHWVRQASGKGLEWVGRIRTKSSNYATYYAASVKGRFTISRDDSKNTAYLQMNSLKTEDTAVYYCTRDMGIRRQFAYWGQGTLVTVSS VL: DIVLTQSPDSLAVSLGERATINCRASQSVDTFDYSFLHWYQQKPGQPPKLLIYRASNLESGVPDRFSGSGSGTDFTLTISSLQAEDVAVYYCQQSNEDPYTFGQGTKLEIKR
0.0007 s⁻¹	300000 M⁻¹ s⁻¹	0.33 nM	0.21 nM	0.2 nM	0.0006 s⁻¹	4e+06 M⁻¹ s⁻¹	mAb 0317 (mAb 0170 variant, light chain E27Q, E97S) (antibody, human IgG4 S228P, kappa, V domains shown, Charge patch mutations) VH: EVQLVESGGGLVQPGGSLKLSCAASGFTFSTYAMHWVRQASGKGLEWVGRIRTKSSNYATYYAASVKGRFTISRDDSKNTAYLQMNSLKTEDTAVYYCTRDMGIRRQFAYWGQGTLVTVSS VL: DIVLTQSPDSLAVSLGERATINCRASQSVDTFDYSFLHWYQQKPGQPPKLLIYRASNLESGVPDRFSGSGSGTDFTLTISSLQAEDVAVYYCQQSNSDPYTFGQGTKLEIKR
0.0006 s⁻¹	200000 M⁻¹ s⁻¹	0.37 nM	0.41 nM	0.3 nM	0.0008 s⁻¹	3e+06 M⁻¹ s⁻¹	mAb 0324 (mAb 0170 variant, heavy chain A59Y) (antibody, human IgG4 S228P, kappa, V domains shown) VH: EVQLVESGGGLVQPGGSLKLSCAASGFTFSTYAMHWVRQASGKGLEWVGRIRTKSSNYYTYYAASVKGRFTISRDDSKNTAYLQMNSLKTEDTAVYYCTRDMGIRRQFAYWGQGTLVTVSS VL: DIVLTQSPDSLAVSLGERATINCRASESVDTFDYSFLHWYQQKPGQPPKLLIYRASNLESGVPDRFSGSGSGTDFTLTISSLQAEDVAVYYCQQSNEDPYTFGQGTKLEIKR
0.0001 s⁻¹	400000 M⁻¹ s⁻¹		0.33 nM	0.3 nM	0.0005 s⁻¹	2e+06 M⁻¹ s⁻¹	mAb 0333 (mAb 0170 variant, heavy chain A59Y, light chain F32A, E27Q, E97Q) (antibody, human IgG4 S228P, kappa, V domains shown) VH: EVQLVESGGGLVQPGGSLKLSCAASGFTFSTYAMHWVRQASGKGLEWVGRIRTKSSNYYTYYAASVKGRFTISRDDSKNTAYLQMNSLKTEDTAVYYCTRDMGIRRQFAYWGQGTLVTVSS VL: DIVLTQSPDSLAVSLGERATINCRASQSVDTADYSFLHWYQQKPGQPPKLLIYRASNLESGVPDRFSGSGSGTDFTLTISSLQAEDVAVYYCQQSNQDPYTFGQGTKLEIKR
